# From IntAct's records for PubMed 18177377
# B1: Mannose-binding protein C (Homo sapiens), P11226 (parent)
# chain: MSLFPSLPLLLLSMVAASYSETVTCEDAQKTCPAVIACSSPGINGFPGKDGRDGTKGEKGEPGQGLRGLQGPPGKLGPPGNPGPSGSPGPKGQKGDPGKSPDGDSSLAASERKALQTEMARIKKWLTFSLGKQVGNKFFLTNGEIMTFEKVKALCVKFQASVATPRNAAENGAIQNLIKEEAFLGITDEKTEGQFVDLTGNRLTYTNWNEGEPNNAGSDEDCVLLLKNGQWNDVPCSTSHLAVCEFPI
# Variants of: B1
# Settings: with calr_human CALR
row,Variant,effect of a mutation on the interaction
1,MSLFPSLPLLLLSMVAASYSETVTCEDAQKTCPAVIACSSPGINGFPGKDGRDGTKGEKGEPGQGLRGLQGPPGALGPPGNPGPSGSPGPKGQKGDPGKSPDGDSSLAASERKALQTEMARIKKWLTFSLGKQVGNKFFLTNGEIMTFEKVKALCVKFQASVATPRNAAENGAIQNLIKEEAFLGITDEKTEGQFVDLTGNRLTYTNWNEGEPNNAGSDEDCVLLLKNGQWNDVPCSTSHLAVCEFPI [K75A],disrupting interaction strength
2,MSLFPSLPLLLLSMVAASYSETVTCEDAQKTCPAVIACSSPGINGFPGKDGRDGTKGEKGEPGQGLRGLQGPPGELGPPGNPGPSGSPGPKGQKGDPGKSPDGDSSLAASERKALQTEMARIKKWLTFSLGKQVGNKFFLTNGEIMTFEKVKALCVKFQASVATPRNAAENGAIQNLIKEEAFLGITDEKTEGQFVDLTGNRLTYTNWNEGEPNNAGSDEDCVLLLKNGQWNDVPCSTSHLAVCEFPI [K75E],disrupting interaction strength
